How the values were obtained:
[1] = target: delta opioid receptor (DOP) (Homo sapiens, UniProt P41143); test: Radioligand binding, delta opioid receptor; details: 100 nM test compound
[2] = plasma and microsomal protein binding corrected

By UniProt entry, the sequences of proteins in these tests, tags left out.
UniProt P41143, whole entry: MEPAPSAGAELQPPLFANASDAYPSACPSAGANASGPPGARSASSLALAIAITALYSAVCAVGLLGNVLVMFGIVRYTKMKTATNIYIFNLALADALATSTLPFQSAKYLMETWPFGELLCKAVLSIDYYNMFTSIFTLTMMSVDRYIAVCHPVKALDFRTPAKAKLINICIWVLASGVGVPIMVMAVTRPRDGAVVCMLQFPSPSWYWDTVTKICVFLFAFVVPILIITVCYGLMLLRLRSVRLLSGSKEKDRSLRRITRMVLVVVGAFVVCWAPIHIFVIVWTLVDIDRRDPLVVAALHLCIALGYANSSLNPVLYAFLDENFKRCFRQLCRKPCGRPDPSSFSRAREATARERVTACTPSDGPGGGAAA

Row | SMILES | percent displacement of bound radioligand, opioid δ [1] | E (hepatic extraction ratio) [2]
1 | CC[C@@H]1CN2CCc3c([nH]c4cccc(O)c34)[C@@H]2C[C@@H]1/C(=C\OC)C(=O)OC [9-hydroxycorynantheidine] | 3.4% | 0.01
2 | CC[C@@H]1CN2CCc3c([nH]c4ccccc34)[C@@H]2C[C@@H]1/C(=C\OC)C(=O)OC [corynantheidine] |  | 0.20
